Values of other authors in US20260144817A1, “IN[…] THERAPY IN BCG-EXPOSED PATIENTS” (priority 2022, published 2026).

Details: patients; printed 'as high as'

High dose IL-2: high dose interleukin-2 infused after TIL
toxicity: 70-90%
